# Measurements taken from patent US20110129508A1 (priority 2008, published 2011).
# Settings: male, Wistar (HsdBrlHan WIST), rat, in vivo
smiles,measurement,value
CN1CC[C@]23c4c5ccc(O)c4O[C@H]2[C@@H](O)C=C[C@H]3[C@H]1C5 [morphine],"mean, open field activity monitor (test for sedation)",814.2
same,"mean, open field activity monitoring (sedation test)",814.20
